Values of other authors, collected in patent US12637432B2, “Inhibitors of ACK1/TNK2 tyrosine kinase” (H. LEE MOFFITT CANCER CENTER AND RESEARCH INSTITUTE, INC., priority 2020, dated 2026).

Details: mouse models; cited from earlier work

COc1cc(Oc2ccccc2)ccc1-c1nc(C2CC(C)(O)C2)n2ccnc(N)c12 (stereo not shown)
oral bioavailability: orally bioavailable
